Literature values as cited in paper PMC6358775, “Elucidation of Vasodilation Response and Structure Activity Relationships of N^2,N^4-Disubstituted Quinazoline 2,4-Diamines in a Rat Pulmonary Artery Model” (Molecules, 2019).

System: α1 adrenergic receptor
Conditions: α1 adrenergic receptor antagonist; ChEMBL substructure search; cited from earlier work

COc1cc2nc(N3CCN(C(=O)C4CCCO4)CC3)nc(N)c2cc1OC (stereo not shown) [Terazosin]
Activity: 7 nM
